Experimental data published in ChEMBL document CHEMBL1799970, “Dipyrimidine amines: a novel class of chemokine receptor type 4 antagonists with high specificity” (J Med Chem, 2010).

Amino acid sequences for entries named in this document (tags omitted).
UniProt P61073, whole entry: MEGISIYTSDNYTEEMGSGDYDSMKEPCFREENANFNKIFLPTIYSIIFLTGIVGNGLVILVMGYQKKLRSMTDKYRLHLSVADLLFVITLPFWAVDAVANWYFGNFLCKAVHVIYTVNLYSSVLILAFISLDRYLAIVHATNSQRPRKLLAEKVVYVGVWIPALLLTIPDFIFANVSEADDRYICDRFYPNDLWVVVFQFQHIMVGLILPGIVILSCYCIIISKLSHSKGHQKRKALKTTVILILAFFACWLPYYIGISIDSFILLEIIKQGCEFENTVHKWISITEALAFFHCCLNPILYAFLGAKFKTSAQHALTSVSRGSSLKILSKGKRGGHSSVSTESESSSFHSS

Key:
[1] = biological target: T1, C-X-C chemokine receptor type 4 (Homo sapiens, UniProt P61073); assay: Displacement of biotinylated-TN14003 from CXCL12 binding site of CXCR4 in human MDA-MB-231 cells assessed as concentration required to inhibit >50% using rhodamine staining; assay type: cell-based
In short: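 MDA-MB-231 cells preincubated with compound at 1, 10, 100, 1000 nM, fixed in 4% formaldehyde, incubated with 50 nM biotinylated peptide antagonist then streptavidin-rhodamine; EC is lowest concentration blocking >50% of binding.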

[2] = biological target: T1, C-X-C chemokine receptor type 4; assay: Antagonist activity at CXCR4 in human MDA-MB-231 cells assessed as inhibition of CXCL12-mediated cell invasion at 100 nM by […] cell invasion assay; assay type: functional, cell-based
[3] = biological target: T1, C-X-C chemokine receptor type 4; assay: Antagonist activity at CXCR4 in human MDA-MB-231 cells assessed as inhibition of CXCL12-mediated cell invasion at 10 nM by […] cell invasion assay; assay type: functional, cell-based

EC [1] [nM] | inhibition [2] [%] | inhibition [3] [%] | Structure (SMILES)
10 | 100 | 55 | c1ccc(NCc2ccc(CNc3ncccn3)cc2)cc1
1 | 78 | 90 | Fc1ccc(NCc2ccc(CNc3ncccn3)cc2)nc1
10 | – | – | c1ccc(NCc2ccc(CNc3ccccn3)cc2)nc1
